These results are taken from ChEMBL document CHEMBL1125838, “Conformational restriction of the phenylalanine residue in a cyclic opioid peptide analogue: effects on receptor selectivity and stereospecificity” (J Med Chem, 1991).

Amino acid sequences for entries named in this document (tags omitted).
UniProt P33533, whole entry, looked up: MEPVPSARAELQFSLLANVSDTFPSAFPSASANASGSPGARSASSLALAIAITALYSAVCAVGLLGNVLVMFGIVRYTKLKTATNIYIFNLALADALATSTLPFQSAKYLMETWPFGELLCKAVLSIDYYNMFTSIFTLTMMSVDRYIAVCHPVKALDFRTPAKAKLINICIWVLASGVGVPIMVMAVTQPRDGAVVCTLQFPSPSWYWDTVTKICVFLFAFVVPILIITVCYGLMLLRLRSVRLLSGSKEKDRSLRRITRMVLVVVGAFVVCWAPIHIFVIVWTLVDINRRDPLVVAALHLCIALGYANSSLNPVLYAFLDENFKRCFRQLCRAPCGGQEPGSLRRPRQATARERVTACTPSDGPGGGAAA
UniProt P33535, whole entry, looked up: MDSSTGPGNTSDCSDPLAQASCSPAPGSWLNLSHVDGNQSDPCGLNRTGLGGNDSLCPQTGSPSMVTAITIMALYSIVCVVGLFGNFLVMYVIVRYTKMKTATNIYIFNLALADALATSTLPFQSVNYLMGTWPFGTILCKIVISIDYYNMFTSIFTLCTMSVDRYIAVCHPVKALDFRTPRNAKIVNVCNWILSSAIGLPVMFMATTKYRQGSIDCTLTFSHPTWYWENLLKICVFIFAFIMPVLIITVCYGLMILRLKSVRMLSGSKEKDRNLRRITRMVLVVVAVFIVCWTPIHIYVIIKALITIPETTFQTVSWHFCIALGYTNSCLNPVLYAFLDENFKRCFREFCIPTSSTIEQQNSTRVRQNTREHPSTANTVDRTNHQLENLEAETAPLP

Experiment [1] has as its target Delta-type opioid receptor (Rattus norvegicus) (UniProt P33533). Briefly: Relative potency for opioid receptor delta compared to [Leu5]-enkephalin.
The nature of experiment [2]: Ratio of IC50 value measured in MVD to that of GPI.
Experiment [3] addresses Opioid receptors; mu & delta (Rattus norvegicus) (UniProt P33533+P33535). Nature of the experiment: Relative binding affinity for opioid receptors delta and mu (ratio of Ki).
Experiment [4] concerns the target Mu-type opioid receptor (Rattus norvegicus) (UniProt P33535). Briefly: Potency at opioid receptor mu relative to [Leu5]-enkephalin.
Experiment [5] deals with Delta-type opioid receptor (Rattus norvegicus) (UniProt P33533). Nature of the experiment: Relative potency towards opioid receptor delta relative to [Leu5]-enkephalin.

In turn, `CC(C)C[C@@H](NC(=O)[C@@H](Cc1ccccc1)NC(=O)CNC(=O)CNC(=O)[C@H](N)Cc1ccc(O)cc1)C(=O)O` had a Relative potency in experiment [1] of 1.
On to `NC(=O)[C@@H]1CCC(=O)NCCC[C@@H](NC(=O)[C@@H](N)Cc2ccc(O)cc2)C(=O)N[C@@H](Cc2ccccc2)C(=O)N1`, for which the Relative potency amounted to 0.79 in experiment [1] and 9.63 in experiment [4]. The IC50 ratio in experiment [2] stood at 0.949. Also, in experiment [3], the Ratio amounted to 3.27.
Taken in the same sequence, the figures for `NC(=O)[C@@H]1CCC(=O)NCCC[C@@H](NC(=O)[C@@H](N)Cc2ccc(O)cc2)C(=O)N[C@H](Cc2ccccc2)C(=O)N1` were 0.000181, 0.00568, 4.39 and 8.43.
Consider `NC(=O)[C@@H]1CCC(=O)NCCC[C@@H](NC(=O)[C@@H](N)Cc2ccc(O)cc2)C(=O)N[C@]2(CCc3ccccc3C2)C(=O)N1` (single isomer, unassigned), for which the Relative potency was found to be 0.00161 in experiment [1] and 1.14 in experiment [4]. The IC50 ratio in experiment [2] came to 8.04. Also, the Ratio in experiment [3] came to 190.
Take `NC(=O)[C@@H]1CCC(=O)NCCC[C@@H](NC(=O)[C@@H](N)Cc2ccc(O)cc2)C(=O)N[C@@]2(CCc3ccccc3C2)C(=O)N1` (single isomer, unassigned): the Relative potency in experiment [1] came to 0.000721; in experiment [4] it was 0.358. The IC50 ratio in experiment [2] was found to be 10.8. The Ratio in experiment [3] is 133.
In the case of `C[C@]1(Cc2ccccc2)NC(=O)[C@H](NC(=O)[C@@H](N)Cc2ccc(O)cc2)CCCNC(=O)CC[C@@H](C(N)=O)NC1=O`, the Relative potency in experiment [1] amounted to 0.0464; in experiment [4], 1.31. Moreover, the IC50 ratio in experiment [2] stood at 1.66. Further, in experiment [3], the Ratio was determined as 7.62.
For the molecule `NC(=O)[C@@H]1CCC(=O)NCCC[C@@H](NC(=O)[C@@H](N)Cc2ccc(O)cc2)C(=O)N2Cc3ccccc3C[C@H]2C(=O)N1`, the Relative potency is 5.05e-05 in experiment [1] and 0.00391 in experiment [4]. Moreover, the IC50 ratio in experiment [2] came out at 2.39. Also, the Ratio in experiment [3] is 20.8.
Taken in the same sequence, the figures for `CN1C(=O)[C@H](NC(=O)[C@@H](N)Cc2ccc(O)cc2)CCCNC(=O)CC[C@@H](C(N)=O)NC(=O)[C@@H]1Cc1ccccc1` were 0.000198, 0.00941, 2.93 and 12.8.
Taken in the same sequence, the figures for `NC(=O)[C@@H]1CCC(=O)NCCC[C@@H](NC(=O)[C@@H](N)Cc2ccc(O)cc2)C(=O)N[C@@H](CCc2ccccc2)C(=O)N1` were 0.165, 8.04, 5.89 and 13.2.
Consider `NC(=O)[C@H]1CCC(=O)NCCC[C@H](NC(=O)[C@@H](N)Cc2ccc(O)cc2)C(=O)NC2(Cc3ccccc3C2)C(=O)N1`, for which the IC50 ratio in experiment [2] amounted to 5.06. Moreover, the Relative potency was determined as 0.012 in experiment [5] and 2.24 in experiment [4]. Besides, in experiment [3], the Ratio amounted to 49.6.
On to `NC(=O)[C@@H]1CCC(=O)NCCC[C@@H](NC(=O)[C@@H](N)Cc2ccc(O)cc2)C(=O)N[C@H](CCc2ccccc2)C(=O)N1`, for which the Relative potency turned out to be 0.000975 in experiment [1] and 0.0365 in experiment [4]. Moreover, in experiment [2], the IC50 ratio was 2.68. Further, the Ratio in experiment [3] is 10.1.
As for `NC(=O)[C@@H]1CCC(=O)NCCC[C@@H](NC(=O)[C@@H](N)Cc2ccc(O)cc2)C(=O)N[C@@H](Cc2ccc3ccccc3c2)C(=O)N1`, the Relative potency stood at 0.05 in experiment [1] and 3.68 in experiment [4]. The IC50 ratio in experiment [2] is 2.68. In experiment [3], the Ratio is 19.8.
Taken in the same sequence, the figures for `Cc1ccccc1C[C@@H]1NC(=O)[C@H](NC(=O)[C@@H](N)Cc2ccc(O)cc2)CCCNC(=O)CC[C@@H](C(N)=O)NC1=O` were 0.275, 4.91, 2.04 and 4.8.
